# Data published in patent US20110224182A1, “SALTS OF (3-0-(3',3'-[…]) BETULINIC ACID AND SOLID STATE FORMS THEREOF” (Myriad Pharmaceuticals, Incorporated, priority 2007, published 2011).
# Test: In vivo pharmacokinetic studies (Method H), plasma levels by LC-MS/MS
# Design: species or system male Sprague-Dawley rats
# Details: rat, oral gavage, relative to DSB-2 NMG
# Method: Method H—In Vivo Pharmacokinetic Studies
# In vivo experiments were conducted in male Sprague-Dawley rats having a body mass of 225 g to 275 g with an appropriate cannula surgically inserted. Rats were supplied food and water ad libitum until 12 hours before dosing when food was removed. Food was withheld until four hours post-dosing. Water was available ad libitum. Each of group of rats consisted of 3 rats.
# Dosing solutions were prepared the same day as dose administration. […] The administered dose of each salt was 1 mg/kg for intravenous administration and 10 mg/kg for oral gavage. Formulations for intravenous administration were filtered after preparation. […]
# Sampling was performed at predose, 2, 5, 15, and 30 minutes, 1, 2, 4, and 8 hours post dose. […] Plasma was separated and stored at −60° C. to −80° C. until analyzed.
# Plasma levels of the compounds were determined by LC-MS/MS. Quantification of the compounds in plasma was performed against a calibration curve generated by serial dilution of a test article DMSO stock solution into blank heparinized rat plasma (50, 100, 200, 500, 1,000, 2,000, 5,000, and 10,000 ng/mL final concentrations of free drug). […]
# All data are expressed as ng/mL of the free drug. Samples that were below the limit of quantification (“bloq”) were assigned a value of zero for the mean concentration calculations.
structure (smiles),measurement,value
"C=C(C)[C@@H]1CC[C@]2(C(=O)O)CC[C@]3(C)[C@H](CC[C@@H]4[C@@]5(C)CC[C@H](OC(=O)CC(C)(C)C(=O)O)C(C)(C)[C@@H]5CC[C@]43C)[C@@H]12.OCCNCCO.OCCNCCO [DSB-2 Diethanolamine, diethanolamine disalt of DSB]",Improvement in oral bioavailability with respect to the NMG salt of DSB,71.3%
